Laboratory results reported in patent US5559213A, “Polyethylene-protein conjugates” (Hoffmann-La Roche Inc., priority 1995, dated 1996).

System: rIL-1alpha induction of interleukin-6
Experiment: Inhibition of rIL-1alpha induction of interleukin-6 in mice (pharmacodynamics)
Assay type: in vivo
Details: Example 6; at 8 and 24 hours after administration
Description: The pharmacodynamics of IL-1ra protein was evaluated in vivo by the ability of the IL-1ra to inhibit rIL-1alpha induction of interleukin-6. Serum from mice treated with rIL-1alpha contain high levels of IL-6, [McIntosh et al., Immunol. 143: 162, (1989)]. The administration of unmodified IL-1ra together with IL-1alpha (0 hr time point) inhibits the induction of IL-6. This test system was used to compare the pharmacodynamic properties of unmodified and PEG IL-1ra. […] Three hours later, serum samples were collected. IL-6 levels (units) were determined using a modification of an IL-6 assay that has been previously described [Van Snick et al., Proc. Natl. Acad. Sci. USA 83:9679, (1986)]. In the IL.-6 assay, B9 hybridoma cells were treated with two fold serial dilutions of the test sera in 96-well microtiter plates. Following a 3 day incubation at 37° C. in a humidified atmosphere comprised of 5% CO2 and 95% air, the wells were pulsed with 0.5 uCi of tritiated thymidine and incubated for an additional 18 hr. The cells were then harvested onto glass fiber filters and the level of tritiated thymidine incorporation was determined by scintillation counting. IL-6 activity is expressed as U/ml. IL-6 units are defined as the inverse of the serum dilution which produces half-maximal tritiated thymidine incorporation compared to a reference standard.

B1: 26 kD IL-1ra (Example 6): IL-1ra conjugated to PEG with the reagent of Example 5; 26 kD column of Table D1 (conjugate, UniProt P18510 26-177, looked up)
Interleukin-1 receptor …: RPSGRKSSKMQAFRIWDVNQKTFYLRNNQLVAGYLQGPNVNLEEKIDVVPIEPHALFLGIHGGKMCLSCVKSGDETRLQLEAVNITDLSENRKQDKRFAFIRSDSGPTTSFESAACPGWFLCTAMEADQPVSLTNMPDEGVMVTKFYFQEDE
modifications: PEG conjugate
- IL-6-inhibitory effect compared to unmodified IL-1ra: prolonged IL-6-inhibitory effect
